Patent US7452388B2, “Compositions comprising dimeric or oligomeric ferrocenes” (Innospec Limited, priority 2000, dated 2008)
Where “and” joins values, the source holds several entries; their conditions need not be identical. Identical values can stand only once. Like-named read-outs stand apart in the source and are kept apart here.

Legend:
[1] = additive in diesel fuel, 20 ppm iron
[2] = additive 20 ppm iron
[3] = PLUTOsol APF, 2.5% by weight iron
[4] = PLUTOsol APF, 2.5% by weight iron; remark: listed apart in the source
[5] = Viscosity of 2.5 wt % iron solutions in toluene (Bohlin CVO rheometer); assay type: physicochemical; details: toluene solution at 2.5 wt % Fe
Procedure: Viscosities of 2.5 wt % iron solutions were determined using a Bohlin Instruments CVO rheometer using a 4° 40 mm cone and plate at shear rates of either 2 Pa or 0.5 Pa.

[6] = Solubility testing in toluene at −30° C.; details: at least one week

2,2-bisferrocenylpropane [Compound 1]
effect on the stability of the fuel (conclusion) [1]: does not adversely affect the stability of the fuel
fuel stability (conclusion) [2]: as good as that provided by the parent compound (ferrocene)
Viscosity ([3]; 0° C.): 4.8 mPas
Viscosity ([3]; 20° C.): 2.7 mPas
Viscosity ([3]; 25° C.): 2.5 mPas
Viscosity ([3]; 40° C.): 2.2 mPas
Viscosity ([3]; 50° C.): 2.2 mPas
Viscosity ([3]; 60° C.): 2.0 mPas
Viscosity ([3]; 90° C.): 2.0 mPas
Viscosity ([3]; −10° C.): 6.8 mPas
Viscosity ([3]; −15° C.): 8.6 mPas
Viscosity ([3]; −20° C.): 10.5 mPas
Viscosity ([3]; −30° C.): 14.8 mPas
Viscosity ([3]; −40° C.): 21 mPas and 21.0 mPas
Vapour Pressure ([4]; 20° C.): 1 mbar
Vapour Pressure ([4]; 40° C.): 2 mbar
Vapour Pressure ([4]; 50° C.): 3 mbar
Vapour Pressure ([4]; 60° C.): 5 mbar
Vapour Pressure ([4]; 70° C.): 8 mbar
Vapour Pressure ([4]; 80° C.): 13 mbar
Vapour Pressure ([4]; 90° C.): 20 mbar
Viscosity at −30° C. (mPas) [5]: 5.4 mPas

1,1-diferrocenyl-3-methyl butane [Compound 6]
Solubility at −30° C., 2.5 wt % Fe (appearance) [6]: Clear
Solubility at −30° C., 5.0 wt % Fe (appearance) [6]: Powder
